Earlier results, collected in patent publication US20070281983A1, “Creatine analog prodrugs, compositions and uses thereof” (XenoPort, Inc., priority 2006, published 2007).

Conditions: ALS

Nc1nc2ccc(OC(F)(F)F)cc2s1 [riluzole]
extension of survival: about three
